The source of these data is patent US20130184308A1, “ACTIVATED BLOOD COAGULATION FACTOR X (FXa) INHIBITOR” (DAIICHI SANKYO COMPANY, LIMITED, priority 2008, published 2013).

Chains of the proteins cited; added tags and fusions are not shown. Residues count along the entry.
UniProt P00742, 41-179 partner limits assumed: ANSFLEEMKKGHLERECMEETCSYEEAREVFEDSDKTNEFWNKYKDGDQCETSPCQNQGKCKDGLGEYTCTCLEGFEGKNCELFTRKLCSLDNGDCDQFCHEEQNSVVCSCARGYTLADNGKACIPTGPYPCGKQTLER
UniProt P00742, 235-488 limits assumed: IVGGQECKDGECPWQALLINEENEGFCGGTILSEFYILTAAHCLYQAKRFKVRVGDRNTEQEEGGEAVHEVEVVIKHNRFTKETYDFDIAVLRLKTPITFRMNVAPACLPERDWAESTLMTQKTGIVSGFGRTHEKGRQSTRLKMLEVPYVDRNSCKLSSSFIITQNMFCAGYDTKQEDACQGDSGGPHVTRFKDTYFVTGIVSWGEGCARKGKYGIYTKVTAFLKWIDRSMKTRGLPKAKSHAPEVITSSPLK

Series [1] concerns bleeding events. The note with it: logistic regression analysis; NVAF patients. On the procedure: Moreover, secondary evaluations were performed for efficacy by the comparison of the incidence of thromboembolic events, pharmacodynamic indexes, and biomarkers, and for safety by the comparison of the incidences of adverse events and adverse reactions. […] In the group to which warfarin was administered, 0.5-mg and 1-mg warfarin tablets were used and orally administered once a day for 12 weeks as a rule at a dose that allowed PT-INR to be controlled to between 2.0 and 3.0 inclusive (for 70-year-old or older participants, between 1.6 and 2.6 inclusive).
The clinical trial was carried out by, after obtaining the consent of test subjects, conducting head diagnostic imaging before registration to confirm no bleeding observation, and conducting head diagnostic imaging (CT or MRI), transthoracic echocardiography, lead electrocardiography, blood pressure examination, pulse rate examination, and hematological/biochemical tests.
In the secondary analysis, the hypothesis (comparison) shown below was studied on the incidence of bleeding events using the one-sided Cochran-Armitage test at the 0.025 level of significance. […]

In series [2] the test system is bleeding events. As to conditions: total knee arthroplasty patients. From the text:
The implementation of this clinical trial conformed to the ethical research guidelines of the Declaration of Helsinki and secured the maximal human rights, welfare, and safety of the test subjects.

In series [3] the target is activated blood coagulation factor X (FXa) (Homo sapiens, UniProt P00742). As to conditions: background statement with reference to Patent Literature 1 to 4; cited from earlier work.

With `CN1CCc2nc(C(=O)N[C@@H]3C[C@@H](C(=O)N(C)C)CC[C@@H]3NC(=O)C(=O)Nc3ccc(Cl)cn3)sc2C1.Cc1ccc(S(=O)(=O)O)cc1` [compound (1a), N^1-(5-chloropyridin-2-yl)-N^2-((1S,2R,4S)-4-[(dimethylamino)carbonyl]-2-{[(5-methyl-4,5,6,7-tetrahydrothiazolo[5,4-c]pyridin-2-yl)carbonyl]amino}cyclohexyl)ethanediamide p-toluenesulfonate monohydrate], in series [1], the “odds ratio BW≦60 kg/BW>60 kg of incidence of bleeding events, (A) major and clinically relevant non-major bleeding” value is given as 3.338; the “odds ratio BW≦60 kg/BW>60 kg of incidence of bleeding events, (B) major, clinically relevant non-major and minor bleeding” value was 1.779. In addition, the “liver functions (serum biochemistry test) compared with placebo group” value in series [2] is “no difference in liver functions”.

In the case of `CN1CCc2nc(C(=O)N[C@@H]3C[C@@H](C(=O)N(C)C)CC[C@@H]3NC(=O)C(=O)Nc3ccc(Cl)cn3)sc2C1` [formula (I), N^1-(5-chloropyridin-2-yl)-N^2-((1S,2R,4S)-4-[(dimethylamino)carbonyl]-2-{[(5-methyl-4,5,6,7-tetrahydrothiazolo[5,4-c]pyridin-2-yl)carbonyl]amino}cyclohexyl)ethanediamide], in series [3], the “inhibitory effect on activated blood coagulation factor X (FXa)” value is reported as “strong inhibitory effect”.
